Binding of CDR-mutated scFvs to a peptide of the spike HR2 region

Values reported by Li et al. 2023, doi:10.1038/s41467-023-39022-2 (FLAb copy).

Antigen: PDVDLGDISGINAS, a 14-residue peptide of the SARS-CoV-2 spike HR2 region.

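The starting antibody came from a phage panning campaign against this peptide. This is the validation round: designs drawn from the data on random variants, tested in the same kind of assay. Group labels follow the data file (Ctrl: baseline library sampled from a position-specific scoring matrix, with some repeated check sequences; En: ensemble of fine-tuned language models; GP: Gaussian process model; HC: hill climbing; Gen: genetic algorithm; Gibbs: Gibbs sampling; a sequence that several methods proposed may carry one label only). In AlphaSeq, yeast of one mating type display the scFv and yeast of the other type display the target. Pairs that bind mate more often; barcode pairs of the diploids are counted by sequencing. A regression on co-assayed BCL2-family reference pairs converts the normalised counts of each replicate to an apparent Kd. There are six technical replicates.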

Parent: Ab-14, a human scFv built as VH, three GGGGS repeats, VL. Only the CDRs of the light chain vary.
VH: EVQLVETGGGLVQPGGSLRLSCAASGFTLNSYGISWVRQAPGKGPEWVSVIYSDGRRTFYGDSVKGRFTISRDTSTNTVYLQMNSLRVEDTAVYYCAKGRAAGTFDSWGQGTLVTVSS
VL: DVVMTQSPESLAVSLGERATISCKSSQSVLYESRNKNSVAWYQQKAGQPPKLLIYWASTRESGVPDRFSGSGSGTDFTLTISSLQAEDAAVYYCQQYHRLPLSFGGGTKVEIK

Each variant is given by its three light chain CDRs, as the data file delimits them; those of the parent are KSSQSVLYESRNKNSVA, WASTRES, QQYHRLPLS.
Scale: log10 of Kd in nM, estimated from mating counts; low values are strong binders.
A mean of the replicates is given; it leaves out those without a signal.
"nd" means that the variant was in the library but no mating with the target was seen in any replicate; the authors take this as a sign of poor binding, and no number exists.
Empty control strains, which show no peptide, gave a signal in 4% of pairings with all light chain designs; the median was 2.64 and 95% of these signals were weaker than 1.59. No background was subtracted. The control count says in how many pairings with the empty strains this scFv gave a signal.
The authors averaged sequences with at least three values out of six and counted those with two or fewer as poor binders.
The range of this assay differs from that of the first round, and the authors advise against merging the two.
The parent sequence was in this pool as ten entries: three were never detected, three once, and four in most replicates, with averages from 0.34 to 2.37.

CDR-L1	CDR-L2	CDR-L3	group	mean log10 Kd (nM)	detected	control signals
KSRQSVLYESRNKNSVA	WASTRES	QQYHFLPLS	Ctrl	1.55	1/6	0/18
KLSQADWYESRNKWSVA	EASLREQ	QQYHRLPLS	GP_Gibbs	0.55	6/6	1/18
KMSQSVLYESRNSNSVA	HASTQNS	QQYHELPLS	Ctrl	0.82	6/6	0/18
HMSMLTLQGMRARNSVA	QMTTREN	QQYDRLPLS	En_Gen	0.71	6/6	0/18
QMKMSLLQGILIKDSIA	SSNLREM	QQYEHLPLI	En_Gibbs	1.97	3/6	0/18
HISMSMNYLTRNKNSIA	EESTRED	QQYHRLPLS	En_HC	-0.08	6/6	1/18
KIGQQVTYESTTKNAIA	QMTTREE	QQYHRLPLS	En_HC	0.48	6/6	1/18
HINTASVGVDDHYNAVA	EQRITGI	QQYFRLPLS	En_Gibbs	0.93	6/6	0/18
KLSQSVLYESRMKNSVA	NGSTRES	QQYHRLPLS	GP_Gen	0.47	6/6	1/18
KVSQSVMGGSRNKNSVA	NASQREQ	QQYHRLPLS	GP_Gibbs	-0.20	6/6	2/18
MMSQVTMSGMRHRNNVA	QTSTREN	QQYDRLPLI	En_Gen	1.03	6/6	2/18
HMSEYEHGDNVGVGNMA	NAHETVA	QQYHHLPLS	En_Gibbs	-0.03	6/6	1/18
KLSQSWLYESRMKNNVA	NASQRES	QQYHRLPLS	GP_Gen	0.42	6/6	0/18
KLSQSWLYESRMKNSVA	NASTRLS	QQYHRLPLS	GP_Gen	0.35	6/6	3/18
KSSQSVLYESRNKNSVA	WASTHES	QSYHRLPLS	Ctrl	nd	0/6	0/18
KLSQSELYESRNKNSVA	EASTRMS	QQYHRLPLS	GP_Gen	-0.08	6/6	2/18
KLGEQGGHSMDHANNIA	EVDMLDQ	QQYMHLPLI	En_Gibbs	0.52	6/6	0/18
KMSQSELYESQNSNNVA	HASQRMS	QQYHRLPLS	GP_Gibbs	-0.30	6/6	0/18
HISMSMNFLSRNKNSIA	EESTRED	QQYHRLPLS	En_HC	-0.36	6/6	0/18
KVSGFMRGLTQRKDSIA	DNNTRGS	QQYDRLPLS	En_Gen	1.56	6/6	0/18
KTSQSVLYEWRNKNSVA	DASTRES	QQYHRLPLS	GP_HC	0.44	6/6	0/18
KTSYSVLYESRNKNSVA	WASTRES	QQYARLPLS	Ctrl	1.88	6/6	0/18
TISTSALYESTNKNSVA	ELSVRGS	QQYERLPLS	En_HC	0.50	6/6	0/18
TISQLHNMGTFAINSVA	QAEIRNA	QQYDRLPLA	En_Gen	0.38	6/6	0/18
KVSQSVNVGQKNKNSLA	EMSTREF	QDYHRLPLS	En_HC	0.83	6/6	0/18
KSSQSVLYESRNKNGVA	SASTRES	QQYHRLPSS	Ctrl	nd	0/6	1/18
KQSQSDLLESRNKNSVA	DASTRES	QQYHRLPLS	GP_HC	-0.08	6/6	1/18
MISQLYNMGTFAINSVA	QASIRNE	QQYDRLPLI	En_Gen	2.21	1/6	0/18
KSSQSVLVESRNKNSVA	DASLRES	QQYFRLPLS	Ctrl	-0.32	6/6	0/18
TISQLHNMGTFAINSVA	QAEIRNA	QQYDRLPLQ	En_Gen	1.37	6/6	0/18
KITSTMRFEQKNSNNIA	EVTTRSK	QQYVRLPLA	En_Gen	-0.38	6/6	1/18
HISQMVMYGSCNKNNVA	QVSTRGE	QQYHRLPLS	En_HC	1.38	6/6	0/18
MVNGIMDHLSKNVNNVA	ETETRNS	QQYDRLPLS	En_Gen	0.48	6/6	1/18
LSSISYLYESPNKNSVA	EASTREW	QQYHRLPLS	GP_HC	1.16	6/6	0/18
KIMQSLNYESFNKNSVA	GQETRGQ	QSYHRLPLS	En_HC	1.36	6/6	1/18
KMAQSVLYESRNKNSVA	WASTRES	QQYHRLPLS	Ctrl	2.54	3/6	0/18
MMLQATMYGERQRNSVA	HAQTRED	QQYHRLPLI	En_HC	1.03	6/6	0/18
NLGYQQDGNGLQRQAVA	NVNMKEY	QQYGRLPLM	En_Gibbs	0.30	6/6	0/18
HLSMSTDLESVHKNSIA	DLMTRES	QQYHRLPLS	En_HC	0.37	6/6	2/18
KSSQSVLYESRNKNSVA	NASTRES	QQYHRLPLF	Ctrl	0.47	6/6	2/18
SLMNLMGGVEEMKNSIA	NHEIGVR	QQYAHLPLV	En_Gibbs	1.76	5/6	0/18
HSSPSKLYESRNKNNVA	NASTRES	QQYHRLPLS	GP_HC	0.69	6/6	2/18
KLSQSVLYESRNKNSVA	NASKRMS	QQYHRLPLS	GP_Gen	0.01	6/6	1/18
KIGMVTNGISRSKNSVA	EQSTRED	QQYNRLPLS	En_HC	-0.12	6/6	0/18
KVSQSHLYESRNKNSVA	EASTRES	QQYHRLPLS	GP_Gen	0.61	6/6	2/18

The closing 2 entries, repeated:

CDR-L1	CDR-L2	CDR-L3	group	mean log10 Kd (nM)	detected	control signals
KIGMVTNGISRSKNSVA	EQSTRED	QQYNRLPLS	En_HC	-0.12	6/6	0/18
KVSQSHLYESRNKNSVA	EASTRES	QQYHRLPLS	GP_Gen	0.61	6/6	2/18